Earlier results as cited in US20230265432A1, “METHODS AND COMPOSITIONS FOR TREATING ACUTE MYELOID LEUKEMIA” (Sanford Burnham Prebys Medical Discovery Institute, priority 2021, published 2023).

Sequences of proteins named here, by UniProt entry; tags and fusion partners are left off.
UniProt Q96GD4, whole entry: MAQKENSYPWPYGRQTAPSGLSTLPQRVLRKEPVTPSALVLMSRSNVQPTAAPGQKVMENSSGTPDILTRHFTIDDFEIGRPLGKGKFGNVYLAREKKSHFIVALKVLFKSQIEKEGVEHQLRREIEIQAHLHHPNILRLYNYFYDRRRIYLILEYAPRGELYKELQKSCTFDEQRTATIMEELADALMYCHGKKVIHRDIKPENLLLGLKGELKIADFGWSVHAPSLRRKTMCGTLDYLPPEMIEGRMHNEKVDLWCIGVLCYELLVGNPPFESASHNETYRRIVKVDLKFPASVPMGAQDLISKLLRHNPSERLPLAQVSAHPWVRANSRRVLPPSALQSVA

What was measured:
[1] = target: T1, G9a (Homo sapiens, UniProt Q96KQ7); details: cited from earlier work
T1 sequence (Q96KQ7 1-1210): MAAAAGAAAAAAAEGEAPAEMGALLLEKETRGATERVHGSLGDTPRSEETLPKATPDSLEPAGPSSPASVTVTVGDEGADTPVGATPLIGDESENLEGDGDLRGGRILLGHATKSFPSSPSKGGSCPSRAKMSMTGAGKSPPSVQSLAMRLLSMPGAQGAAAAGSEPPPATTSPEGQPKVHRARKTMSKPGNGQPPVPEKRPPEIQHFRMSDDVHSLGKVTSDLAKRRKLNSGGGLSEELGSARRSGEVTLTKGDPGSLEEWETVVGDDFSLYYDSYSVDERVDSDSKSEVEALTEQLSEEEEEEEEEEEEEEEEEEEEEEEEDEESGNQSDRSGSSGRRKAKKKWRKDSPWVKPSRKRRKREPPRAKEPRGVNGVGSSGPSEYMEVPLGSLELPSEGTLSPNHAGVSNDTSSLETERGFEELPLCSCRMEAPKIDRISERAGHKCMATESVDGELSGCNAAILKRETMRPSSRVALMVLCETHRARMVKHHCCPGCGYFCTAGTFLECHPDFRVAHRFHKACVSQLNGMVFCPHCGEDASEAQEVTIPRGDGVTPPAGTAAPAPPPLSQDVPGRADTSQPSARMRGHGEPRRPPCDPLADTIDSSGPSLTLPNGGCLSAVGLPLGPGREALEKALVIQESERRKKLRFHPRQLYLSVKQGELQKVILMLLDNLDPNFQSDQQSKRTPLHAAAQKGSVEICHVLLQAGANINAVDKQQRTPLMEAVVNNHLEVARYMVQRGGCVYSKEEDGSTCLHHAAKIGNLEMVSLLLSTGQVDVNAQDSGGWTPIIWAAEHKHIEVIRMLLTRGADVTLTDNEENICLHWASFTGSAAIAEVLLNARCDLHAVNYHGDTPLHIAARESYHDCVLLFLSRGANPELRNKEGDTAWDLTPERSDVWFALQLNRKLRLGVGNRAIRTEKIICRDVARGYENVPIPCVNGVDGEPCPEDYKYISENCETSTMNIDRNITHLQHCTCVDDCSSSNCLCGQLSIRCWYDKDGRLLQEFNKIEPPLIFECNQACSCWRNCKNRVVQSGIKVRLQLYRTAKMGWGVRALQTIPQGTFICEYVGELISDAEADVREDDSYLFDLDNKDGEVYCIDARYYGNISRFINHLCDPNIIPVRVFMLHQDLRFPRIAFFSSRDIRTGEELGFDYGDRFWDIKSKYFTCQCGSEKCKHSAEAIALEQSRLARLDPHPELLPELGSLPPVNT

[2] = target: Aurora B (Homo sapiens, UniProt Q96GD4); details: cited from earlier work

Compound	IC50 [1] [µM]	fold selective for G9a over SET7/9 and SET8 [1]	does not inhibit at doses up to [2]
COc1cc2c(NC3CCN(C)CC3)nc(N3CCCN(C)CC3)nc2cc1OCCCN(C)C [UNC0224]	0.015	> 1,000 fold	
Cc1cc(Nc2nn(-c3ccccc3)c(=O)c3ccccc23)n[nH]1			inhibit Aurora B kinase at doses up to 100 μM; inhibits the
